Earlier results as cited in PubChem BioAssay AID1811 (Shanghai Institute of Organic Chemistry, 2009).
This is one part of the list. Activity calls are given as the source filed them. Unless stated, no cut-off for active and inactive is given here.

Test system: fiber protein
Test: PubChem AID 1811
Settings: PDB complex binding affinities from literature

**Q.** With CC(=O)N[C@H]1[C@H]([C@H](O)[C@H](O)CO)O[C@@](O[C@@H]2[C@@H](O)[C@H](O)O[C@H](CO)[C@@H]2O)(C(=O)O)C[C@@H]1O as the compound, how does the outcome read?
**A.** The outcome was “active”.
